This is a selection; strong and weak results do not stand in their true shares. Some results for these compounds are left out of this collection, so the calls shown say nothing about other tests. Active and inactive are the calls of the source.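 Rule for the calls: active = compounds giving at least 50% protection of heart cells from peroxide-induced death in the single-dose screen, raw or plate-pattern-corrected value; inactive = the rest.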
Test: H9c2 cardiomyocyte survival under peroxide injury – uHTS, H9c2 cells, ATPLite luminescence, primary screen (AID 588492);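 note: 0% = DMSO wells with peroxide and 100% = DMSO wells without peroxide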
Conditions: H9c2 cardiomyocytes, 2 h, at 20 µM, stronger effect = higher value

| SMILES | protection from H2O2 cell death |
| --- | --- |
| CN(C)C1(CNC(=O)c2ccc(Br)cc2)CCCCC1 | inactive: -2.2% |
| COc1cc(C(=O)NCC2(N(C)C)CCCCC2)c([N+](=O)[O-])cc1OC | inactive: 0.3% |
| COc1ccc(Cl)cc1C(=O)NCC1(N(C)C)CCCCC1 | inactive: 3.3% |
| COc1cccc(C(=O)NCC2(N3CCCCC3)CCCCC2)c1 | inactive: -1% |
| O=C(NCC1(N2CCCCC2)CCCCC1)c1cccc(Cl)c1 | inactive: 2.2% |
| O=C(OC1CN2CCC1CC2)C(CO)(c1ccccc1)c1ccccc1 (stereo unspecified) | inactive: 4.8% |
| COc1ccc(Br)c(C(=O)NCC2(N3CCCCC3)CCCCC2)c1 | inactive: 5.9% |
| C=C(C)C#CC(O)(C(=O)OC1CCN(C)CC1)c1ccccc1 (stereo unspecified) | inactive: -6.3% |
| CN(C)c1cccc(C(=O)NCC2(N(C)C)CCCCC2)c1 | inactive: 4.4% |
| O=C(OCCN1CCCC1)C(O)(c1ccccc1)c1ccccc1 | inactive: 4% |
| CC(C)Oc1ccc(C(=O)NCC2(N(C)C)CCCCC2)cc1 | inactive: -0.2% |
| O=C(NCC1(N2CCCCC2)CCCCC1)c1cc([N+](=O)[O-])ccc1Cl | inactive: -8.3% |
| CN1[C@@H]2CC[C@H]1CC(OC(=O)C(O)(c1ccccc1)c1ccccc1)C2 (stereo partly specified) | inactive: 3.5% |
| CC(C)N1C(=O)CC2(CCN(CCOC(=O)C(O)(c3ccccc3)c3ccccc3)CC2)C1=O | inactive: 3.3% |
| COc1cc(SC)ccc1C(=O)NCC1(N(C)C)CCCCC1 | inactive: 7.5% |
| CCN(CC)CC(C)C(C)OC(=O)C(O)(c1ccccc1)c1ccccc1 (stereo unspecified) | inactive: 17.6% |
| Cc1ccc(C(=O)NCC2(N3CCCCC3)CCCCC2)cc1 | inactive: -1.1% |
| CN(C)c1ccc(C(=O)NCC2(N(C)C)CCCCC2)cc1 | inactive: 12.2% |
| CN(C)C1CCCC1OC(=O)C(O)(c1ccccc1)c1ccccc1 (stereo unspecified) | inactive: 3.2% |
| Cc1ccccc1C(=O)NCC1(N2CCCCC2)CCCCC1 | inactive: -0.2% |
| O=C(NCC1(N2CCCCC2)CCCCC1)c1cc(F)c(F)cc1Cl | inactive: 2.7% |
| C=CCN1CCN(CCOC(=O)C(O)(c2ccccc2)c2ccccc2)CC1 | inactive: 8.2% |
| O=C(NCC1(N2CCCCC2)CCCCC1)c1cccc(Br)c1 | inactive: -2.6% |
| CCN1CCCC(OC(=O)C2(O)c3ccccc3C=Cc3ccccc32)C1 (stereo unspecified) | inactive: 12.7% |
| Cc1cc(C(=O)NCC2(N3CCCCC3)CCCCC2)ccc1[N+](=O)[O-] | inactive: 0.7% |
| COc1ccc(C(=O)NCC2(N(C)C)CCCCC2)cc1 | inactive: 3.3% |
